{"source": "patent US20190091227A1", "about": "“METHODS FOR TREATING ER+, HER2-, HRG+ BREAST CANCER USING COMBINATION THERAPIES COMPRISING AN ANTI-ERBB3 ANTIBODY” (Merrimack Pharmaceuticals, Inc., priority 2016, published 2019)", "tested_on": "CDK2", "assay": "CDK2 activation (phospho-Thr160) by Western blotting in MCF7 cells", "format": "cell-based, human", "settings": "MCF7, agent alone, 20-24 hours; HRG 10 nM, fulvestrant, palbociclib, abemaciclib 100 nM", "method": "Cellular lysates were prepared by lysis in MPER lysis buffer with the addition of protease and phosphatase inhibitors for 30 minutes on ice. Cellular debris was removed by centrifugation at 10,000 rpm. Proteins were analyzed by Western blotting according to standard protocols."}
{"smiles": "CCN1CCN(Cc2ccc(Nc3ncc(F)c(-c4cc(F)c5nc(C)n(C(C)C)c5c4)n3)nc2)CC1", "note": "[abemaciclib, 2-pyrimidinamine, N-(5-((4-ethyl-1-piperazinyl)methyl)-2-pyridinyl)-5-fluoro-4-(4-fluoro-2-methyl-1-(1-methylethyl)-1H-benzimidazol-6-yl), reference compound]", "values": [{"measurement": "CDK2 activation", "value": "inhibited CDK2 activation"}]}
